Test system: melanin granules
Assay: Rat melasma model: Fontana-Masson staining of melanin granules
Format: in vivo, SD rats
Details: skin collected Day 58, tranexamic acid 5 mg/mL
Source text: 3.1 Modeling: Before the experiment, on Day 0, SD rats (purchased from Beijing Vital River Experimental Animal Technology Co., Ltd., SPF grade, female, 7-8 weeks old, weighing 200±20 g) were randomly grouped and numbered. The hairs on the backs of animals in each group were shaved using an electric shaver, and the short hairs on the skin were removed with a depilatory cream to fully expose the back skin. The hair removal area was slightly larger than the actual modeling area (5 cm×5 cm). Each rat was depilated once every 2-3 days to ensure that the back skin was fully exposed. On the next day (Day 1), rats in each group were weighed, and the weights were recorded when the electronic scale reading was stable. A progesterone injection was injected intramuscularly at the base of the rat's thigh (alternately between the thighs on both sides), with a drug concentration of 20 mg/mL and an injection dose of 25 mg/kg, once a day. After the intramuscular injection, the rat's back skin was irradiated with ultraviolet light at a wavelength of 280-320 nm. The light source was about 30 cm away from the rat's back skin, and the irradiation time lasted for 60 minutes each time, for a total of 4 weeks. […]

NC[C@H]1CC[C@H](C(=O)O)CC1 [tranexamic acid, Tranexamic acid]
distribution of melanin granules: distributed in a band shape but mainly concentrated in the basal layer and stratum spinosum

Reference: patent publication US20250325526A1, “USE OF TETRAHYDRONAPHTHYRIDINE DERIVATIVE FOR PREPARING PRODUCT FOR IMPROVING HYPERPIGMENTATION” (SCINNOHUB PHARMACEUTICAL CO., LTD, priority 2022, published 2025)
